Measured values as given in ChEMBL document CHEMBL4145661, “H2O2/Peroxynitrite-Activated Hydroxamic Acid HDAC Inhibitor Prodrugs Show Antileukemic Activities against AML Cells” (ACS Med Chem Lett, 2018).

The chains behind the UniProt entries cited, without tags or fusion partners. Where a name states a change or a piece, a line headed by the entry shows the natural chain unless it says otherwise.
UniProt Q13547: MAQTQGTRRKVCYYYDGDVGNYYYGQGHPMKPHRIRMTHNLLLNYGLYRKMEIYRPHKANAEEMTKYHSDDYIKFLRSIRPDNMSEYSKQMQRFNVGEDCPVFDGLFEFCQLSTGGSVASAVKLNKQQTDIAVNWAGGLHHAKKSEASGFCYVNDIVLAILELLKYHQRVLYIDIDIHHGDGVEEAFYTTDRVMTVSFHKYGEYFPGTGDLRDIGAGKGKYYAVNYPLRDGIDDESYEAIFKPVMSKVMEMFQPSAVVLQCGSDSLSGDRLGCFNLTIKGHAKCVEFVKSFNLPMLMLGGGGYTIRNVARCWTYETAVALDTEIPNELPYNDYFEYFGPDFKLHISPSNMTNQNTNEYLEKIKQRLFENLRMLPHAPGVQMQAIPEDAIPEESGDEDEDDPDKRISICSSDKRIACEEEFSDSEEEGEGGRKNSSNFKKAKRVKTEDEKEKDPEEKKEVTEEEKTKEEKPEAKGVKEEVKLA
UniProt Q9UBN7: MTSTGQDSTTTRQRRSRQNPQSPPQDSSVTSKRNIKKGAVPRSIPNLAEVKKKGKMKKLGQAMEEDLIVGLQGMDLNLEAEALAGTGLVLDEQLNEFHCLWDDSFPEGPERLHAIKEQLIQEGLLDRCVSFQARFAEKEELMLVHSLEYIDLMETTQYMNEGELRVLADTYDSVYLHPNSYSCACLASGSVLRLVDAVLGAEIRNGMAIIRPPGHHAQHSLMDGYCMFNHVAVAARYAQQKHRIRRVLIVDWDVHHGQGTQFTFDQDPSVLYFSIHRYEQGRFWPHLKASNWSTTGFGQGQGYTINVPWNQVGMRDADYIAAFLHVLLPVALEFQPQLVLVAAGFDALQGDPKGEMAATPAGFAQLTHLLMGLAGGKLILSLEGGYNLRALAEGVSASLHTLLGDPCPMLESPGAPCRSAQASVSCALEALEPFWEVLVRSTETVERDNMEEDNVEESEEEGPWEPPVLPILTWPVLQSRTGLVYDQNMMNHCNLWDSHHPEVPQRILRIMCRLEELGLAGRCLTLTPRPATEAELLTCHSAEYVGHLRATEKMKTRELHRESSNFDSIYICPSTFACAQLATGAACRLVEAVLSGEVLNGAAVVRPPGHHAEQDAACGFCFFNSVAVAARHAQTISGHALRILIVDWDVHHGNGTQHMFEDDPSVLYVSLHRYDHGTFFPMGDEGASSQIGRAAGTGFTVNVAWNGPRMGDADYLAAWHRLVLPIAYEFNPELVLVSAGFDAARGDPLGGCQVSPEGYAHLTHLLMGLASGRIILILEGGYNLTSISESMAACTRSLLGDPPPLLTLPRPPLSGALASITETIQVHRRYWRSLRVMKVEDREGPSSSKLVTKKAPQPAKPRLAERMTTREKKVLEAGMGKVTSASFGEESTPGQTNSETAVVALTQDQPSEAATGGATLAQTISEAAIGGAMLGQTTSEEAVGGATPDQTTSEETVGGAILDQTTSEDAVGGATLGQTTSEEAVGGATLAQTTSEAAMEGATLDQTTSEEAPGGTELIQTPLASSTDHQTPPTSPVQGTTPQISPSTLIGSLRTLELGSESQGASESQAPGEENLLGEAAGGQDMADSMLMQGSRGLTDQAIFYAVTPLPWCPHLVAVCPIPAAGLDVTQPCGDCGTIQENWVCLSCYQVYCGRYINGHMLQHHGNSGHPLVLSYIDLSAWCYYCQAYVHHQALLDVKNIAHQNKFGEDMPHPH
UniProt Q92769: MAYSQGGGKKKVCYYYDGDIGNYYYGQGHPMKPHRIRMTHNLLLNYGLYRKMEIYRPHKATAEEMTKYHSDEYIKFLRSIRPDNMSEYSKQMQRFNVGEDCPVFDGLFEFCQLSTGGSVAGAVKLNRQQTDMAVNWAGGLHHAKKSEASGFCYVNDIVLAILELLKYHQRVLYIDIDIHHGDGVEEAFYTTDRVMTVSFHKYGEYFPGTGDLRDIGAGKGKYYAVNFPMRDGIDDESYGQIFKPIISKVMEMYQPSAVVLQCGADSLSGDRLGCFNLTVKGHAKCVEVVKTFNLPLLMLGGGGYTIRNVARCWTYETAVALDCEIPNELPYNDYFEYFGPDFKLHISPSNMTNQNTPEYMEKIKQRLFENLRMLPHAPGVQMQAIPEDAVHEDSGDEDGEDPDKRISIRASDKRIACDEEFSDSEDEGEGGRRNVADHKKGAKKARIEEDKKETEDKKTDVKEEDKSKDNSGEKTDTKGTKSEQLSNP
UniProt Q9UQL6: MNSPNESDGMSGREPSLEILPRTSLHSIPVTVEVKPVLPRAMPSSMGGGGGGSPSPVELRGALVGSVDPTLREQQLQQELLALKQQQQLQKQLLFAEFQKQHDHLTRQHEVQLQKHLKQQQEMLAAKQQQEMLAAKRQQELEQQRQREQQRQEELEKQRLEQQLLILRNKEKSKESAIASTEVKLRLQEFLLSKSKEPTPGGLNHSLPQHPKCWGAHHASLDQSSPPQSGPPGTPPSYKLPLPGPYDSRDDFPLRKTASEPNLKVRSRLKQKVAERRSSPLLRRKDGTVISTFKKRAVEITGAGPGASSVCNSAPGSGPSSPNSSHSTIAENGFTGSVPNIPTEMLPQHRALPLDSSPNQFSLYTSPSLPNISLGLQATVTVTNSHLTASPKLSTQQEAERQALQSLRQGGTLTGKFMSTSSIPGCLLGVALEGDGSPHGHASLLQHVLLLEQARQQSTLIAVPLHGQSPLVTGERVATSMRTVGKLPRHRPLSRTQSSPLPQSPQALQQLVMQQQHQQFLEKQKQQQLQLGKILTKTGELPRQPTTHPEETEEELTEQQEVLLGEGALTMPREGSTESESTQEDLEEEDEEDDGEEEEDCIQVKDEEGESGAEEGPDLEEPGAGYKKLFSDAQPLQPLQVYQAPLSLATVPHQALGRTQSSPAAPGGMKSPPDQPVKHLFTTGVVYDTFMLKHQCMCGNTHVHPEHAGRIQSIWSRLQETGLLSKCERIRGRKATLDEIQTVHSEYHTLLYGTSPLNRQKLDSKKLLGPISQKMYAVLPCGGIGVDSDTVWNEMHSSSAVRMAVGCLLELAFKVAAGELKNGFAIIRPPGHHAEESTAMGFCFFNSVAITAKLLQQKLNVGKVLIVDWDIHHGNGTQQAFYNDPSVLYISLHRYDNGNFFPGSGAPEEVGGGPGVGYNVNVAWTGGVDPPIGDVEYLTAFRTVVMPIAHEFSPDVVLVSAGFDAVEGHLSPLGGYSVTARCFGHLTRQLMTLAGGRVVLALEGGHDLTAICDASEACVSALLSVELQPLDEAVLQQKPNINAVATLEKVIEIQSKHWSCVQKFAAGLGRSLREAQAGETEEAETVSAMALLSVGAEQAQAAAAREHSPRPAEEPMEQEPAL
UniProt Q8WUI4: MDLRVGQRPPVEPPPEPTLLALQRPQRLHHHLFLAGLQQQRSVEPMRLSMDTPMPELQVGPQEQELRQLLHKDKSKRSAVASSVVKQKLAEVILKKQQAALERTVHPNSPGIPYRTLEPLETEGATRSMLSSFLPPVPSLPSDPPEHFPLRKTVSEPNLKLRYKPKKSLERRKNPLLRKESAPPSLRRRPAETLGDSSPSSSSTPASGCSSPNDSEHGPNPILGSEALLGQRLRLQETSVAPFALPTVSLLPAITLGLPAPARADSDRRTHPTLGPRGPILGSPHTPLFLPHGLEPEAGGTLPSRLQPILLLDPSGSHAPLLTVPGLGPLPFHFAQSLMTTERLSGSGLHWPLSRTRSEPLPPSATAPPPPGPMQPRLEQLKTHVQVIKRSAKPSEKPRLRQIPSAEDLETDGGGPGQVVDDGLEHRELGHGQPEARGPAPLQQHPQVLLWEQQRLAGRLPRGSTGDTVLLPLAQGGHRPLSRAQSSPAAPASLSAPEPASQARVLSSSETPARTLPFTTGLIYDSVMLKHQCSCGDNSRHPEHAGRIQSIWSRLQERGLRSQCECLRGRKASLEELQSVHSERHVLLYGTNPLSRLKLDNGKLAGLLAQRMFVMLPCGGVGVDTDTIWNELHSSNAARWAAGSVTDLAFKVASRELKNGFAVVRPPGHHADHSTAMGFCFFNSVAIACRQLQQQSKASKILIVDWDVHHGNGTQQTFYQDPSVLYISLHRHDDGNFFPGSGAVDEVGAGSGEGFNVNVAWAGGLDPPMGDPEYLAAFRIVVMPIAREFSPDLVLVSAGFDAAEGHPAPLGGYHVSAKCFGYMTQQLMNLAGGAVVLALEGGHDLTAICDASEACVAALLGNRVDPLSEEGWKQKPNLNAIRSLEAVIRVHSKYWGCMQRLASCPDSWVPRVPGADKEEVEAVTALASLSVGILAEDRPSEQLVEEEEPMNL
UniProt Q9BY41: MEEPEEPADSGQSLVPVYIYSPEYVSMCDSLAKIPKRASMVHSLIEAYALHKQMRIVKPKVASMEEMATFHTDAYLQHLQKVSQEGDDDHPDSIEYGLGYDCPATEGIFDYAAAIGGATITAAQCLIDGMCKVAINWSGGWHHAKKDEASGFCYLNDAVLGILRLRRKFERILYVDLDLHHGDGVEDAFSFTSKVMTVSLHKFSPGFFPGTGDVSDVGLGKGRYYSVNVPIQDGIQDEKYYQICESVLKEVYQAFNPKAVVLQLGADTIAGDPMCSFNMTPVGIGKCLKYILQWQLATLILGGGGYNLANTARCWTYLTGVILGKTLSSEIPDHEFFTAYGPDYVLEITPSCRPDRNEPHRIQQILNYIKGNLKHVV
UniProt P56524: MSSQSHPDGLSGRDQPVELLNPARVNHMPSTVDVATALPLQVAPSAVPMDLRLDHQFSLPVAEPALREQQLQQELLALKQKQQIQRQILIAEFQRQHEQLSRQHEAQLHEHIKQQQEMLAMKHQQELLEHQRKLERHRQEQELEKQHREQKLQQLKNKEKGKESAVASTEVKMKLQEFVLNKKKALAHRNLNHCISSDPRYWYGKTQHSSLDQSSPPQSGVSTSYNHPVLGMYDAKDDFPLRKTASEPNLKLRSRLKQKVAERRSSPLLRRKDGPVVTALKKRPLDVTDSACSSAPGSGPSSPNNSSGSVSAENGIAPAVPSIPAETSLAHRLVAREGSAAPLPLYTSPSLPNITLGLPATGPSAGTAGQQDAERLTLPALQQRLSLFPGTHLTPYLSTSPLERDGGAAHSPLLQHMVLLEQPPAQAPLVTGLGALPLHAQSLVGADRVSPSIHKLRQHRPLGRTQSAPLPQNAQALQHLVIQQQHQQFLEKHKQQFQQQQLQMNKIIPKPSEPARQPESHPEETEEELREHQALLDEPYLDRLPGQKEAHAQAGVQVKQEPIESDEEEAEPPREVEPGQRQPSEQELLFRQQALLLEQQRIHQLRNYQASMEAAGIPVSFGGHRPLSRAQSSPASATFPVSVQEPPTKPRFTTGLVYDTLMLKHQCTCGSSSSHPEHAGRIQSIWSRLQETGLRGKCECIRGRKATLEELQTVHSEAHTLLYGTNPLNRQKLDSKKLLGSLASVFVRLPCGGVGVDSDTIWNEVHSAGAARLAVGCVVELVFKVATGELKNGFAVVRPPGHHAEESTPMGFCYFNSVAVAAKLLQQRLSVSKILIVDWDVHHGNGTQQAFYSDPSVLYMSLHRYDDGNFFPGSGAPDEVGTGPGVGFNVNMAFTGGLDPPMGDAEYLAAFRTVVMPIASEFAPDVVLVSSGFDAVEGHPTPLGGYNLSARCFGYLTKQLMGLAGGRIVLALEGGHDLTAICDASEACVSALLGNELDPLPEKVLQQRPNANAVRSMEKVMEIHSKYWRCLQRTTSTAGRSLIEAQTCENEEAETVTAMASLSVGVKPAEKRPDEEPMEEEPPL
UniProt Q969S8: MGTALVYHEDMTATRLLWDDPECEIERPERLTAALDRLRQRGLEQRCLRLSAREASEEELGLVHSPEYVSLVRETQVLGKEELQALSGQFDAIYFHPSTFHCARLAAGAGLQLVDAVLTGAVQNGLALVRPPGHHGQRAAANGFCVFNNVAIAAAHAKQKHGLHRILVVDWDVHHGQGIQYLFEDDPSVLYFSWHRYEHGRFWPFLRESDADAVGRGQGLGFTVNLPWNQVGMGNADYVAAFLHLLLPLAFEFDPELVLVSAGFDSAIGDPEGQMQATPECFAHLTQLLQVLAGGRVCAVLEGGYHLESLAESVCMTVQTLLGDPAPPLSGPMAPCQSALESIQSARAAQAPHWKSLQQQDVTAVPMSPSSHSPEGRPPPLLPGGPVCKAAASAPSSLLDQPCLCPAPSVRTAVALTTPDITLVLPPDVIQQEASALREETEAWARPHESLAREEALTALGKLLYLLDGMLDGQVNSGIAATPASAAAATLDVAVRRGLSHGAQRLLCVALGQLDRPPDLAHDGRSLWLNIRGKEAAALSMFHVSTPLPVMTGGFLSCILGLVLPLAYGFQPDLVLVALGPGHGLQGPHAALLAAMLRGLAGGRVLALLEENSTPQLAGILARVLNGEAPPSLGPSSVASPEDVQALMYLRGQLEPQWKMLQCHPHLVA

How the values were obtained:
[1] = molecular target: T1, Histone deacetylase (Homo sapiens) (UniProt Q13547+O15379+Q9UBN7+Q92769+Q9UQL6+Q8WUI4+Q9BY41+Q96DB2+P56524+Q9UKV0+Q969S8); test: Inhibition of HDAC in human MV4-11 cells assessed as increase in acetylation of alpha-tubulin at 2.5 uM after 6 hrs by Western blot analysis relative to SAHA; type: cell-based
[2] = molecular target: T1, Histone deacetylase (Homo sapiens); test: Inhibition of HDAC in human MV4-11 cells assessed as increase in acetylation of alpha-tubulin at 5 uM after 6 hrs by Western blot analysis relative to SAHA; type: cell-based
[3] = molecular target: T1, Histone deacetylase (Homo sapiens); test: Inhibition of HDAC in human MV4-11 cells assessed as increase in acetylation of histone H4 at 5 uM after 6 hrs by Western blot analysis relative to SAHA; type: cell-based
[4] = molecular target: T1, Histone deacetylase (Homo sapiens); test: Inhibition of HDAC in human MV4-11 cells assessed as increase in acetylation of histone H4 at 10 uM after 6 hrs by Western blot analysis relative to SAHA; type: cell-based
[5] = molecular target: T1, Histone deacetylase (Homo sapiens); test: Inhibition of HDAC in human MV4-11 cells assessed as increase in acetylation of alpha-tubulin at 1 uM after 6 hrs by Western blot analysis relative to SAHA; type: cell-based
U-937 = test: Cytotoxicity against human U937 cells assessed as reduction in cell viability after 72 hrs by MTT assay; type: functional, cell-based
[6] = molecular target: T1, Histone deacetylase (Homo sapiens); test: Inhibition of HDAC in human MV4-11 cells assessed as increase in acetylation of histone H4 at 1 uM after 6 hrs by Western blot analysis relative to SAHA; type: cell-based
[7] = molecular target: T1, Histone deacetylase (Homo sapiens); test: Inhibition of HDAC in human MV4-11 cells assessed as increase in acetylation of alpha-tubulin at 10 uM after 6 hrs by Western blot analysis relative to SAHA; type: cell-based
[8] = molecular target: T1, Histone deacetylase (Homo sapiens); test: Inhibition of HDAC in human MV4-11 cells assessed as increase in acetylation of histone H4 at 2.5 uM after 6 hrs by Western blot analysis relative to SAHA; type: cell-based
[9] = molecular target: T1, Histone deacetylase (Homo sapiens); test: (§1) Inhibition of HDAC in human MV4-11 cells assessed as ratio of acetylation of alpha-tubulin to GAPDH protein level at 2.5 uM pretreated with catalase for 2 hrs followed by compound addition measured after 24 hrs by Western blot analysis relative to (4-(((8-oxo-8-(phenylamino)octanamido)oxy)methyl)phenyl)boronic acid alone; type: cell-based
[10] = molecular target: T1, Histone deacetylase (Homo sapiens); test: as §1, with “BSO/LPS” for “catalase”; type: cell-based
[11] = molecular target: T1, Histone deacetylase (Homo sapiens); test: as §1, with “histone H4” for “alpha-tubulin”, “BSO/LPS” for “catalase”; type: cell-based
[12] = molecular target: T1, Histone deacetylase (Homo sapiens); test: as §1, with “SOD” for “catalase”; type: cell-based
[13] = molecular target: T1, Histone deacetylase (Homo sapiens); test: as §1, with “histone H4” for “alpha-tubulin”; type: cell-based
[14] = molecular target: T1, Histone deacetylase (Homo sapiens); test: as §1, with “histone H4” for “alpha-tubulin”, “SOD” for “catalase”; type: cell-based

Row | SMILES | fold change (FC) [1] | fold change (FC) [2] | fold change (FC) [3] | fold change (FC) [4] | fold change (FC) [5] | Activity (U-937) | fold change (FC) [6] | fold change (FC) [7] | fold change (FC) [8] | fold change (FC) [9] | fold change (FC) [10] | fold change (FC) [11] | fold change (FC) [12] | fold change (FC) [13] | fold change (FC) [14]
1 | COc1cc(/C=C/C(=O)N2CCC=CC2=O)cc(OC)c1OCCCCCCC(=O)NOCc1ccc(B(O)O)cc1 | 0.59 | 0.8 | 2.09 | 2.15 | 0.27 | Dose-dependent effect | 0.26 | 0.9 | 0.56 | – | – | – | – | – | –
2 | O=C(CCCCCCC(=O)Nc1ccccc1)NOCc1ccc(B(O)O)cc1 | 0.17 | 0.35 | 0.09 | 0.27 | 0.06 | Dose-dependent effect | 0.02 | 0.53 | 0.03 | 0.3 | 1.4 | 4.4 | 1.2 | 0.4 | 1.7
